Laboratory results from patent publication US9850366B2, “Epdxidized fatty acid alkyl ester plasticizers and methods for making epdxidized fatty acid alkyl ester plasticizers” (Dow Global Technologies LLC, priority 2012, dated 2017).

Tests used:
[1] = Water solubility (water content of plasticizer by Karl Fischer titration after mixing with water); format: physicochemical; settings: Table 1; water uptake of plasticizer at room temperature
Experimental: Water Solubility 20 mL of plasticizer is taken in a beaker and mixed with equal volume of distilled water. The mixture is stirred vigorously at room temperature and allowed to settle in a separating funnel. The mixture forms an emulsion which takes approximately 24 hours to form separate layers of organic and aqueous phases. After 48 hours, the two layers are separated. The aqueous layer is drained and the organic layer containing plasticizer and some water is recovered. The organic layer contains water in dissolved form as well as in the fine emulsion form. This layer is centrifuged at 7000 rpm for one hour. This step separates water trapped in the plasticizer in dispersed form. The plasticizer is further analyzed for water content with the help of wet chemistry methods. Carl Fischer titration method is used to determine the water content in plasticizer.

[2] = format: physicochemical
Experimental: Solubility in PVC is determined according to American Society for Testing and Materials (“ASTM”) method D 3367-98. In addition, the epoxidized fatty acid alkyl ester can have an oxirane oxygen value of at least 3.5, or in the range of from 4.0 to 7.8, as determined by American Oil Chemists' Society (“AOCS”) method Cd 9-57. […] Water solubility of the epoxidized fatty acid alkyl ester is determined according to the procedures described in the Test Methods section, below. Solubility in PVC Measure solubility in PVC according to ASTM D 3367-98. Test parameters, such as the design of centrifuge tubes, soak temperature, soak time, drainage of plasticizer, and centrifuge speed to remove excess plasticizer, are optimized to be able to capture differences in plasticizer absorption and solubilities of different plasticizers in PVC. Centrifuge tubes with a 0.8 mm diameter hole at the bottom are used for the test. […] The plasticizer absorbed by PVC is measured from the weight gain of PVC (after accounting for weight gain due to plasticizer absorbed by cotton). The equilibrium plasticizer solubility is calculated by subtracting the void volume (found to be equal to amount of acetylated castor wax absorbed by PVC, see PCT Published Application WO/2011/041380) from the plasticizer absorption.

| Substance | Water solubility (%) [1] [%] | Solubility in PVC (g/100 g PVC) [2] [g/100 g PVC] |
| --- | --- | --- |
| epoxidized methyl linolenate [CS2, reference compound] | 4.77 |  |
| epoxidized methyl linolenate [CS4, reference compound] |  | 223.6 |
